Measured values published in patent US7276484B2, “Dipeptide inhibitors of β-secretase” (Elan Pharmaceuticals, Inc., priority 1999, dated 2007).
pIC50: −log10 of the molar value.

By UniProt entry, the sequences of proteins in these tests, tags left out. Residues count along the entry.
UniProt P56817, 46-501 limits assumed: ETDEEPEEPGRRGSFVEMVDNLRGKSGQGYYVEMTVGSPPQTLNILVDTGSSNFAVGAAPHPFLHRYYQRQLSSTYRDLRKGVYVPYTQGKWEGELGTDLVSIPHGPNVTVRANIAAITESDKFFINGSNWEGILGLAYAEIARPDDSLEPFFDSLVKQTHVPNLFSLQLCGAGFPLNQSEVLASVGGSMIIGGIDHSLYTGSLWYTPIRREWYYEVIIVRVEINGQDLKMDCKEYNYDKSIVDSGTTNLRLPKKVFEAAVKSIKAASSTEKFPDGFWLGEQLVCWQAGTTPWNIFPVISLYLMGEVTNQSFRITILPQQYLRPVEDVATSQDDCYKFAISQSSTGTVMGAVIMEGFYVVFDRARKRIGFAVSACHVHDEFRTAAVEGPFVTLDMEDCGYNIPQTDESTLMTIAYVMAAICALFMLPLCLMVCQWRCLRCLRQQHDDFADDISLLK

Molecular target: Human brain β-Secretase (Homo sapiens, UniProt P56817)
Assay: MBP-C125 enzyme inhibition assay (ELISA detection of β-secretase cleavage of MBP-C125 substrate)
Conditions: read-out: IC50 Grouping, pH 4.5, 37° C., 90 minutes

Row | SMILES | pIC50
1 | CC(C)C[C@H](NC(=O)C(O)c1cccc2ccccc12)[C@@H](O)CC(=O)N[C@H](C(=O)NCc1ccc(C(=O)O)cc1)C(C)C (single isomer, unassigned) | 4.00 to 5.00
2 | CCN(CC)C(=O)c1cccc(C(=O)N[C@@H](Cc2cc(F)cc(F)c2)[C@@H](O)CC(=O)N[C@H](C(=O)O)C(C)C)c1 | > 5.00
3 | CSCCC(O)C(=O)N[C@H](CC(C)C)[C@H](O)CC(=O)N[C@@H](C(=O)NCc1ccc(C(=O)O)cc1)C(C)C (stereo partly shown) | 3.70 to 4.00
4 | CC(C)C[C@H](NC(=O)[C@H](O)Cc1ccccc1)[C@@H](O)CC(=O)N[C@H](C(=O)NCc1ccc(C(=O)O)cc1)C(C)C | < 3.70
5 | CC(C)[C@@H](NC(=O)C[C@@H](O)[C@@H](Cc1cccc(C(F)(F)F)c1)NC(=O)C(O)c1cccc2ccccc12)C(=O)N[C@H]1C[C@@H](C(=O)O)C[C@@H](C(=O)O)C1 (stereo partly shown) | > 5.00
6 | CC(C)C[C@@H](NC(=O)CC(O)c1ccccc1)[C@H](O)CC(=O)N[C@@H](C(=O)NCc1ccc(C(=O)O)cc1)C(C)C (stereo partly shown) | < 3.70
7 | CCN(C)C(=O)c1cccc(C(=O)N[C@H](Cc2cc(F)cc(F)c2)[C@H](O)CC(=O)N[C@@H](C(=O)O)C(C)C)c1 | 4.00 to 5.00
8 | CC(C)C[C@H](NC(=O)[C@H](O)c1ccccc1)[C@@H](O)CC(=O)N[C@H](C(=O)NCc1ccc(C(=O)O)cc1)C(C)C | 3.70 to 4.00
9 | CC(C)C[C@H](NC(=O)C(O)c1cccc2ccccc12)[C@@H](O)CC(=O)N[C@H](C(=O)NC1CC(C(=O)O)CC(C(=O)O)C1)C(C)C (stereo partly shown) | > 5.00
10 | CC(C)[C@@H](NC(=O)C[C@@H](O)[C@@H](Cc1cc(F)cc(F)c1)NC(=O)C(O)c1cccc2ccccc12)C(=O)N[C@@H]1C[C@H](CO)C[C@H](CO)C1 (stereo partly shown) | > 5.00
11 | CC(C)C[C@H](NC(=O)C(O)c1cccc(Oc2ccccc2)c1)[C@@H](O)CC(=O)N[C@H](C(=O)NCc1ccc(C(=O)O)cc1)C(C)C (stereo partly shown) | 4.00 to 5.00
12 | CC(C)C[C@@H](NC(=O)C(O)c1cccc2ccccc12)[C@H](O)CC(=O)N[C@@H](C(=O)NC1CCC(C(=O)O)CC1)C(C)C (stereo partly shown) | 4.00 to 5.00
13 | CCNC(=O)[C@H](NC(=O)C[C@@H](O)[C@@H](Cc1cc(F)cc(F)c1)NC(=O)c1cccc(C(=O)N(C)CC)c1)C(C)C | > 5.00
14 | CC(C)C[C@H](NC(=O)[C@@H](O)Cc1ccccc1)[C@@H](O)CC(=O)N[C@H](C(=O)NCc1ccc(C(=O)O)cc1)C(C)C | 3.70 to 4.00
15 | CCCN(CCC)C(=O)c1cc(OC)cc(C(=O)N[C@H](Cc2cc(F)cc(F)c2)[C@H](O)CC(=O)N[C@@H](C(=O)NC2CC(C(=O)O)CC(C(=O)O)C2)C(C)C)c1 (stereo partly shown) | > 5.00
16 | CC(C)[C@@H](NC(=O)C[C@@H](O)[C@@H](Cc1cc(F)cc(F)c1)NC(=O)c1ccccc1)C(=O)NC1CC(C(=O)O)CC(C(=O)O)C1 (stereo partly shown) | 4.00 to 5.00
17 | CC(C)C[C@@H](NC(=O)C(OCc1ccccc1)c1cccc2ccccc12)[C@H](O)CC(=O)N[C@@H](C(=O)NCc1ccc(C(=O)O)cc1)C(C)C (stereo partly shown) | 3.70 to 4.00
18 | CCCN(CCC)C(=O)c1cc(C)cc(C(=O)N[C@H](Cc2cc(F)cc(F)c2)[C@H](O)CC(=O)N[C@@H](C(=O)NC2CC(OC)C(OC)C(OC)C2)C(C)C)c1 (stereo partly shown) | > 5.00
19 | CC(C)[C@@H](NC(=O)C[C@@H](O)[C@@H](Cc1cc(F)cc(F)c1)NC(=O)C(O)c1ccc2c(c1)OCCO2)C(=O)N[C@H]1C[C@@H](C(=O)O)C[C@@H](C(=O)O)C1 (stereo partly shown) | > 5.00

Row | SMILES | pIC50
20 | CC(C)C[C@H](NC(=O)C(O)c1cccc2ccccc12)[C@@H](O)CC(=O)N[C@H](C(=O)NCc1ccc(C(=O)O)c2ccccc12)C(C)C (stereo partly shown) | < 3.70
21 | CC(C)[C@H](NC(=O)C[C@H](O)[C@H](Cc1cc(F)cc(F)c1)NC(=O)CCCC(=O)N(C)C)C(=O)NC1CC(C(=O)O)CC(C(=O)O)C1 (stereo partly shown) | > 5.00
22 | CC(C)C[C@@H](NC(=O)C(O)c1ccccc1Br)[C@H](O)CC(=O)N[C@@H](C(=O)NCc1ccc(C(=O)O)cc1)C(C)C (stereo partly shown) | 4.00 to 5.00
23 | CC(C)[C@@H](NC(=O)C[C@@H](O)[C@@H](Cc1cscn1)NC(=O)C(O)c1cccc2ccccc12)C(=O)NCc1ccc(C(=O)O)cc1 (stereo partly shown) | 4.00 to 5.00
24 | CC(C)[C@@H](NC(=O)C[C@@H](O)[C@@H](Cc1cc(F)cc(F)c1)NC(=O)c1ccc2ccccc2c1)C(=O)N[C@H]1C[C@@H](C(=O)O)C[C@@H](C(=O)O)C1 | > 5.00
25 | CC(C)C[C@H](NC(=O)C(O)c1cccc2ccccc12)[C@@H](O)CC(=O)N[C@H](C(=O)O)C(C)C (stereo partly shown) | < 3.70
26 | CC(=O)Nc1cccc(C(=O)N[C@@H](Cc2cc(F)cc(F)c2)[C@@H](O)CC(=O)N[C@H](C(=O)NC2CC(C(=O)O)CC(C(=O)O)C2)C(C)C)c1 (stereo partly shown) | 4.00 to 5.00
27 | CCN(CC)C(=O)c1cccc(C(=O)N[C@@H](Cc2cc(F)cc(F)c2)[C@@H](O)CC(=O)N[C@H](C(=O)NC2CC(C(=O)O)CC(C(=O)O)C2)C(C)C)c1 (stereo partly shown) | > 5.00
28 | COC(C(=O)N[C@H](CC(C)C)[C@H](O)CC(=O)N[C@@H](C(=O)NCc1ccc(C(=O)O)cc1)C(C)C)(c1ccccc1)C(F)(F)F (stereo partly shown) | < 3.70
29 | CCNC(=O)[C@@H](NC(=O)C[C@H](O)[C@H](Cc1cc(F)cc(F)c1)NC(=O)C(O)c1ccccc1-c1ccccc1)C(C)C (stereo partly shown) | > 5.00
30 | CCCN(CCC)C(=O)c1ccc(C(=O)N[C@H](Cc2cc(F)cc(F)c2)[C@H](O)CC(=O)N[C@@H](C(=O)N[C@H]2C[C@@H](C(=O)O)C[C@@H](C(=O)O)C2)C(C)C)o1 | > 5.00
31 | CC(C)[C@H](NC(=O)C[C@H](O)[C@H](Cc1cc(F)cc(F)c1)NC(=O)c1cccc(C(N)=O)c1)C(=O)NC1CC(C(=O)O)CC(C(=O)O)C1 (stereo partly shown) | > 5.00
32 | CC(C)[C@@H](NC(=O)C[C@@H](O)[C@@H](Cc1cccs1)NC(=O)C(O)c1cccc2ccccc12)C(=O)N[C@H]1C[C@@H](C(=O)O)C[C@@H](C(=O)O)C1 (stereo partly shown) | > 5.00
33 | CC(C)C(=O)c1cccc(C(=O)N[C@H](Cc2cc(F)cc(F)c2)[C@H](O)CC(=O)N[C@@H](C(=O)N[C@H]2C[C@@H](C(=O)O)C[C@@H](C(=O)O)C2)C(C)C)c1 | > 5.00
34 | CC(C)[C@H](NC(=O)C[C@H](O)[C@H](Cc1cc(F)cc(F)c1)NC(=O)c1cccc(C(=O)N2CCN(C)CC2)c1)C(=O)NC1CC(C(=O)O)CC(C(=O)O)C1 (stereo partly shown) | 4.00 to 5.00
35 | CC(C)C[C@H](NC(=O)C(O)c1cccc2ccccc12)[C@@H](O)CC(=O)N[C@H](C(=O)NCCCC(=O)O)C(C)C (stereo partly shown) | < 3.70
36 | Cc1ccc(C[C@H](NC(=O)C(O)c2cccc3ccccc23)[C@@H](O)CC(=O)N[C@H](C(=O)NCc2ccc(C(=O)O)cc2)C(C)C)cc1 (stereo partly shown) | 4.00 to 5.00
37 | CCCN(CCC)C(=O)c1ccc(C(=O)N[C@H](Cc2cc(F)cc(F)c2)[C@H](O)CC(=O)N[C@@H](C(=O)N[C@H]2C[C@@H](C(=O)O)C[C@@H](C(=O)O)C2)C(C)C)s1 | > 5.00
